The entries are a selection whose mix differs from that of the whole data set. The source made the active and inactive calls.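 Rule for the calls: active = compounds giving at least 50% protection of heart cells from peroxide-induced death in the single-dose screen, raw or plate-pattern-corrected value; inactive = the rest.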

The test in a line: cardioprotection against H2O2-induced cell death, primary screen, uHTS, H9c2 cells, ATPLite luminescence (AID 588492).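 Note: 0% = DMSO wells with peroxide and 100% = DMSO wells without peroxide.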 The note with it: H9c2 cardiomyocytes, H2O2 injury protection, 2 h, at 20 µM, hits give high values. On the technique in general: Cellular ATP, detected with luciferase, serves as a proxy for viable cell number.
In the case of `CCCN1CCC(Nc2cc(OC)cc(OC)c2)CC1`, the protection from H2O2 cell death is inactive: -7%.

`O=c1[nH]c2ccccc2n1C1CCN(C(c2ccccc2)c2nnnn2C2CCCC2)CC1` (stereo not drawn): the protection from H2O2 cell death was inactive: 8.7%.

In the case of `Cc1cc(N(CCCl)CCCl)ccc1C=O`, the protection from H2O2 cell death is inactive: -4.1%.

As for `c1ccc(CN2CCC(Nc3ccccc3)CC2)cc1`, the protection from H2O2 cell death was inactive: 1.1%.

`CN(C)C1(CNC(=O)c2cccc(C#N)c2)CCCCC1`: the protection from H2O2 cell death is inactive: 2.8%.

Turning to `CC(C)(C)n1nnnc1C(c1cccc2ccccc12)N1CCC(n2c(=O)[nH]c3ccccc32)CC1` (stereo not drawn), the protection from H2O2 cell death was inactive: -11.8%.

In the case of `CC(C)(C)OC(=O)N1CCC(N(C(=O)c2ccccc2)c2ccc(Cl)cc2)CC1`, the protection from H2O2 cell death is inactive: 2.5%.

As to `N#Cc1ccc(C(=O)NCC2(N3CCCCC3)CCCCC2)cc1`, the protection from H2O2 cell death was inactive: -1.9%.

`N/C(=N\O)c1c(N)no[n+]1[O-]`: the protection from H2O2 cell death was inactive: 2.2%.

`COc1cccc(C(c2nnnn2C(C)(C)C)N2CCC(n3c(=O)[nH]c4ccccc43)CC2)c1OC` (stereo not drawn): the protection from H2O2 cell death is inactive: 14.1%.

Turning to `CCOC(=O)N1CCC(Nc2ccc(C)cc2)CC1`, the protection from H2O2 cell death was inactive: 9.3%.

For `CCCCn1nnnc1C(c1cccc(OC)c1OC)N1CCC(n2c(=O)[nH]c3ccccc32)CC1` (stereo not drawn), the protection from H2O2 cell death is inactive: 13.3%.

With `O=c1[nH]c2ccccc2n1C1CCN(C(c2cccs2)c2nnnn2C2CCCC2)CC1` (stereo not drawn), the protection from H2O2 cell death was inactive: 27.6%.

On to `O=C(OC1CN2CCC1CC2)C1c2ccccc2C=Cc2ccccc21` (stereo not drawn), for which the protection from H2O2 cell death is inactive: 7.5%.

Regarding `O=C(NCC1(N2CCOCC2)CCCCC1)c1cc(Br)ccc1Cl`, the protection from H2O2 cell death is inactive: 1.1%.

On to `COc1cc(C(=O)NCC2(N3CCOCC3)CCCCC2)cc(OC)c1C`, for which the protection from H2O2 cell death was inactive: 5.8%.

As for `CCCCn1nnnc1C(c1ccccc1)N1CCC(n2c(=O)[nH]c3ccccc32)CC1` (stereo not drawn), the protection from H2O2 cell death was inactive: 19.3%.

On to `O=c1[nH]c2ccccc2n1C1CCN(C(c2ccnc3ccccc23)c2nnnn2C2CCCC2)CC1` (stereo not drawn), for which the protection from H2O2 cell death was inactive: 7.4%.

With `COc1ccc(C(=O)NCC2(N3CCOCC3)CCCCC2)cc1OC`, the protection from H2O2 cell death is inactive: 1.8%.

For the compound `O=c1[nH]c2ccccc2n1C1CCN(C(c2cccs2)c2nnnn2C2CCCCC2)CC1` (stereo not drawn), the protection from H2O2 cell death is inactive: 22.9%.

Consider `CCC(CO)(C(=O)OC1CN2CCC1CC2)c1ccccc1` (stereo not drawn), for which the protection from H2O2 cell death was inactive: 4.1%.

In the case of `COc1cccc(C(=O)N(c2cc(C)cc(C)c2)C2CCN(C(=O)OC(C)(C)C)CC2)c1`, the protection from H2O2 cell death was inactive: -3.1%.

On to `COc1cc(OC)cc(C(=O)NCC2(N3CCOCC3)CCCCC2)c1`, for which the protection from H2O2 cell death is inactive: -3.6%.

For `COc1cccc(C(c2nnnn2C2CCCC2)N2CCC(n3c(=O)[nH]c4ccccc43)CC2)c1OC` (stereo not drawn), the protection from H2O2 cell death was inactive: 4.5%.

As for `CN1CCC(Nc2ccc(Cl)cc2)CC1`, the protection from H2O2 cell death is inactive: -4.1%.

In the case of `CN1CCC(Nc2ccc(F)c(Cl)c2)CC1`, the protection from H2O2 cell death is inactive: 6.1%.

Consider `CCOc1ncccc1C(=O)NCC1(N2CCOCC2)CCCCC1`, for which the protection from H2O2 cell death was inactive: 2.1%.

On to `CCCOc1ccc(C(=O)NCC2(N(C)C)CCCCC2)cc1`, for which the protection from H2O2 cell death was inactive: 1.6%.

In the case of `O=c1[nH]c2ccccc2n1C1CCN(C(c2cc3ccccc3o2)c2nnnn2C2CCCC2)CC1` (stereo not drawn), the protection from H2O2 cell death was inactive: 6.4%.

As for `O=C(O)C1(Nc2ccccc2)CCN(Cc2ccccc2)CC1`, the protection from H2O2 cell death was inactive: 12.4%.

For the compound `CC(C)(C)OC(=O)N1CCC(Nc2ccccc2)CC1`, the protection from H2O2 cell death was inactive: -2.8%.

Take `CC(C)(C)n1nnnc1C(c1ccnc2ccccc12)N1CCC(n2c(=O)[nH]c3ccccc32)CC1` (stereo not drawn): the protection from H2O2 cell death is inactive: 7.3%.

Regarding `COc1ccc(C(c2nnnn2C2CCCCC2)N2CCC(n3c(=O)[nH]c4ccccc43)CC2)cc1` (stereo not drawn), the protection from H2O2 cell death is inactive: 15.8%.

Turning to `CCN1CCC(Nc2cccc(F)c2)CC1`, the protection from H2O2 cell death is inactive: 12.5%.

`Cc1ccccc1NC1(C#N)CCN(Cc2ccccc2)CC1`: the protection from H2O2 cell death is inactive: -6.4%.

As to `Cn1c(=O)[nH]cc(N(CCCl)CCCl)c1=O`, the protection from H2O2 cell death is inactive: -1.3%.

Regarding `CN(C)c1ccc(C(=O)NCC2(N3CCCCC3)CCCCC2)cc1`, the protection from H2O2 cell death is inactive: 1.9%.

As for `O=C(NCC1(N2CCCCC2)CCCCC1)c1ccco1`, the protection from H2O2 cell death was inactive: 7.3%.

In the case of `O=c1[nH]c2ccccc2n1C1CCN(C(c2ccnc3ccccc23)c2nnnn2C2CCCCC2)CC1` (stereo not drawn), the protection from H2O2 cell death was inactive: 13.4%.

On to `COc1cc(OC)cc(C(=O)NCC2(N3CCCCC3)CCCCC2)c1`, for which the protection from H2O2 cell death is inactive: 2.8%.

With `CCC(c1nnnn1C1CCCCC1)N1CCC(n2c(=O)[nH]c3ccccc32)CC1` (stereo not drawn), the protection from H2O2 cell death is inactive: 10.4%.

In the case of `CC(=O)N(c1ccccc1)C1CCNCC1`, the protection from H2O2 cell death is inactive: 3.9%.

As to `COc1cccc(C(c2nnnn2C2CCCCC2)N2CCC(n3c(=O)[nH]c4ccccc43)CC2)c1OC` (stereo not drawn), the protection from H2O2 cell death is inactive: 17.1%.

In the case of `Cc1ccc(NC2(C#N)CCN(Cc3ccccc3)CC2)cc1`, the protection from H2O2 cell death is inactive: 1.9%.

In the case of `Fc1ccccc1NC1CCN(Cc2ccccc2)CC1`, the protection from H2O2 cell death was inactive: 1.9%.

On to `Cc1ccc(C(=O)NCC2(N3CCCCC3)CCCCC2)o1`, for which the protection from H2O2 cell death was inactive: 0.5%.

Regarding `O=c1[nH]c2ccccc2n1C1CCN(C(c2ccccc2)c2nnnn2C2CCCCC2)CC1` (stereo not drawn), the protection from H2O2 cell death is inactive: 19.1%.

On to `O=c1[nH]c2ccccc2n1C1CCN(C(c2cccc3ccccc23)c2nnnn2C2CCCC2)CC1` (stereo not drawn), for which the protection from H2O2 cell death is inactive: -8.8%.

Consider `COc1cc(C(=O)NCC2(N(C)C)CCCCC2)ccc1OC(F)F`, for which the protection from H2O2 cell death was inactive: 3.2%.

In the case of `CCOC(=O)N1CCC(Nc2cccc(C)c2)CC1`, the protection from H2O2 cell death was inactive: -3.9%.

With `CCOc1ccc(C)cc1CN(CCCl)CCCl`, the protection from H2O2 cell death was inactive: 2.4%.

In the case of `O=C1CCN(Cc2ccccc2)CC1`, the protection from H2O2 cell death was inactive: 1.3%.

In the case of `CC(C)(C)n1nnnc1C(c1ccccc1)N1CCC(n2c(=O)[nH]c3ccccc32)CC1` (stereo not drawn), the protection from H2O2 cell death is inactive: 17.1%.
